Test results from ChEMBL document CHEMBL1154537, “Synthesis and evaluation of pyrido-thieno-pyrimidines as potent and selective Cdc7 kinase inhibitors” (Bioorg Med Chem Lett, 2009).

Legend:
Homo sapiens [1] = species on record: Homo sapiens; test: Selectivity for human recombinant Cdc7/Dbf4 over human CDK4
Homo sapiens [2] = species on record: Homo sapiens; test: Selectivity for human recombinant Cdc7/Dbf4 over human CDK2
Homo sapiens [3] = species on record: Homo sapiens; test: Selectivity for human recombinant Cdc7/Dbf4 over human CDK1

Measured: Selectivity ratio

C=CCc1c(C)nc2sc3c(N)ncnc3c2c1C
> 500: Homo sapiens [1] | Homo sapiens [2] | Homo sapiens [3]
